{"source": "paper PMC7749166", "about": "“Submolecular probing of the complement C5a receptor–ligand binding reveals a cooperative two-site binding mechanism” (Communications Biology, 2020)", "key": {"C5aR^R175V/Y258V": {"biological_target": "T1, C5aR^R175V/Y258V (Homo sapiens, UniProt P21730, R175V/Y258V)", "T1 construct": "Flag (N); His8 (C); made in house; host or cells: HEK-293S cells (BacMam baculovirus)", "T1 sequence (P21730 1-350 R175V/Y258V)": "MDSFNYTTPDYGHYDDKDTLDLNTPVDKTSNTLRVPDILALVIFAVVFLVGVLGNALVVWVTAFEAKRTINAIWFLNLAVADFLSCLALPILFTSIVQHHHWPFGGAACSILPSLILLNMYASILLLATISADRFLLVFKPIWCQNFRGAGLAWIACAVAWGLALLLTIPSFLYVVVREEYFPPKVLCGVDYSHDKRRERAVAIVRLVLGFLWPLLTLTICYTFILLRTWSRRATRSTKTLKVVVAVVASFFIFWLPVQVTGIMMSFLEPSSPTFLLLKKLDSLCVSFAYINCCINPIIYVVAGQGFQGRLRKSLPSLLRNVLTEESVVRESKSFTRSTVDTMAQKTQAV", "assay": "FD-/FV-based AFM dynamic force spectroscopy vs double mutant", "assay_type": "binding", "settings": "R175V/Y258V vs WT", "description": "(§1) The reconstituted C5aR sample solution (either wt-C5aR or mutants) was 20-fold diluted in fusion buffer solution (20 mM HEPES, 300 mM NaCl, and 25 mM MgCl2) and adsorbed on freshly cleaved mica for 15 min. After rinsing with imaging buffer (20 mM HEPES and 300 mM NaCl) the sample was transferred to the AFM.\nTo functionalize AFM cantilevers with the PMX53 antagonist (Ace-Phe-[{Orn}-Pro-{D-Cha}-Trp-Arg]), aminofunctionalized cantilevers were immersed for 2 h in a solution prepared by mixing 1 mg of NHS-PEG27-maleimide[39] (JKU, Linz, Austria) dissolved in 0.5 ml of chloroform with 30 μl of triethylamine, then washed with chloroform and dried with N2. The cystein bearing peptide Cys-Gly3-Phe-[{Orn}Pro-{D-Cha}-Trp-Arg] […]\nIn FD-based AFM measurements, the AFM cantilever is oscillated in a sinusoidal manner well below its resonance frequency, while the sample surface is contoured pixel-by-pixel. For each approach–retraction cycle of the oscillating cantilever, a force–distance curve is recorded. […] Adhesion maps were recorded using a scan rate of 0.2 Hz and 256 × 256 pixels. […]\nRaw images were analyzed using the Gwyddion 2.5 free software. Force–distance curves were analyzed using the Nanoscope Analysis 1.80 Software (Bruker). Individual force–distance curves corresponding to specific adhesion events were extracted and further analyzed using the OriginLab software. […]"}, "C5aR^D282A": {"biological_target": "T2, C5aR^D282A (Homo sapiens, UniProt P21730, D282A)", "T2 construct": "Flag (N); His8 (C); made in house; host or cells: HEK-293S cells (BacMam baculovirus)", "T2 sequence (P21730 1-350 D282A)": "T1 sequence (P21730 1-350 R175V/Y258V) with V175R, V258Y, D282A", "assay": "FD-/FV-based AFM dynamic force spectroscopy vs D282A mutant", "assay_type": "binding", "settings": "D282A vs WT", "description": "as §1\nRectangular Si3N4 AFM cantilevers with silicon tips (BioLever mini, Bruker) were first cleaned with chloroform for 10 min, rinsed with ethanol, N2 dried, and then cleaned for 15 min in an ultraviolet radiation and ozone cleaner (UV-O, Jetlight, CA, USA). For the aminofunctionalization, the cantilevers were immersed in an ethanolamine solution (3.3 g ethanolamine in 6.6 ml DMSO) overnight and then rinsed in DMSO (3 × 1 min) and ethanol (3 × 1 min), followed by N2 drying. This was followed by the N-hydroxysuccinimide (NHS)-PEG27-acetal linker attachment. A 1 mg portion of the NHS-PEG27-acetal linker (JKU, Linz, Austria) was diluted in 0.5 ml chloroform with 30 µl triethylamine and the cantilevers were immersed in this solution for 2 h. […]\nIn FD-based AFM measurements, the AFM cantilever is oscillated in a sinusoidal manner well below its resonance frequency, while the sample surface is contoured pixel-by-pixel. For each approach–retraction cycle of the oscillating cantilever, a force–distance curve is recorded. […]"}}, "note": "Residue numbers refer to the chain shown, from its start."}
{"substance": "Ace-Phe-[{Orn}-Pro-{D-Cha}-Trp-Arg] (sidechain bridge or staple) [PMX53, cyclic antagonist peptide that mimics the C-terminal structure of the endogenous C5a ligand]", "values": [{"measurement": "decrease in ∆Gbu vs wild type", "setting": "C5aR^R175V/Y258V", "value": "~ 3%"}, {"measurement": "reduction in residence time vs wild type", "setting": "C5aR^R175V/Y258V", "value": "~ 40%"}, {"measurement": "reduction of the free energy vs wild type", "setting": "C5aR^D282A", "value": "~ 43%"}]}
